Literature values as cited in paper PMC9119314, “Semi-Synthetic Analogues of Cryptolepine as a Potential Source of Sustainable Drugs for the Treatment of Malaria, Human African Trypanosomiasis, and Cancer” (Frontiers in Pharmacology, 2022).

System: P. berghei
Settings: 50 mg/kg/dose, with an antimalarial effect, ref Wright et al., 1996; cited from earlier work

C[n+]1c2ccccc2cc2[n-]c3ccccc3c21 [Compound 1, cryptolepine]
Oral safety in mice: could be administered safely
